Our source for the inhibition values is PubChem BioAssay AID686996 (Broad Institute, 2013).

Chains of the proteins cited; added tags and fusions are not shown. Lines headed by an entry give the natural chain unless they say otherwise; changes in a name come on top.
UniProt P55212: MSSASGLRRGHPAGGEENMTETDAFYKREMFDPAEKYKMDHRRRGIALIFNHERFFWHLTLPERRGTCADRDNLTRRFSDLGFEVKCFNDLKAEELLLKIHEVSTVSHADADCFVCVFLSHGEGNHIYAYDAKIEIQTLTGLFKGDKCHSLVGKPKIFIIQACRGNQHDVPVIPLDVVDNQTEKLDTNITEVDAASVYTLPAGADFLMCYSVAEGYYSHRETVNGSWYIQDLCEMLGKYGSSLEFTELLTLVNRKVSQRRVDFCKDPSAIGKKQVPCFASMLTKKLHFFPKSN

SMILES strings stand for the structures. The entries are a selection whose mix differs from that of the whole data set. Activity calls are given as the source filed them.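 The calls were made as follows: active = mean inhibition across replicates at least about 35%, with every replicate also reaching that limit (limit read from the data); inconclusive = only one of the two criteria met; inactive = neither criterion met.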

The experiment addresses Caspase-6 (Homo sapiens) (UniProt P55212). The experiment can be described thus: human caspase-6 inhibitors, primary screen, biochemical, VEID-R110 fluorescence, single point, set 2 (AID 686996).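 Also: 0% = median of neutral control wells and 100% = no fluorescence left.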 The note with it: purified caspase-6, Z-VEID-R110 cleavage fluorescence; at 12.5 µM; hits give high values.
On to `Cc1ccc(NP(=O)(Oc2ccccc2)Oc2ccccc2)nc1`, for which the inhibition (in general, the drop in the measured response relative to a control, in per cent) is inactive: -9.39%.

For the compound `CCN(/C(=N/P(=O)(N1CCOCC1)N1CCOCC1)N1CCOCC1)c1ccc(OC)cc1`, the inhibition was inactive: -1.03%.

As to `C[N+]1=C2C=CC=CC=C2SC12C([N+](=O)[O-])=CC([N+](=O)[O-])=C[C-]2[N+](=O)[O-]` (stereo unspecified), the inhibition is active: 83.4%.

Consider `Nc1ccc([As](=O)(O)c2ccc(N)cc2)cc1`, for which the inhibition was inactive: 1.98%.

As to `c1cc(-c2nn[nH]n2)ccc1-c1nn[nH]n1`, the inhibition is inactive: -2.05%.

For the compound `CC(C)=N/N=C(\N)N[N+](=O)[O-]`, the inhibition was inactive: 1.98%.

Consider `CC(C)c1nc(Nc2ccccc2)n(P(=O)(N(C)C)N(C)C)n1`, for which the inhibition is inactive: 0.962%.

`O=P(Nc1ccccn1)(c1ccc(Br)cc1)c1ccc(Br)cc1`: the inhibition was inactive: -0.039%.

As to `CN(C)C1(CNC(=O)c2ccc(Cl)c(S(N)(=O)=O)c2)CCCCC1`, the inhibition is inactive: -2.18%.

Regarding `Nc1ccc(CCCCOc2ccccc2)cc1`, the inhibition was inactive: 2.71%.

Turning to `COc1ccc(N)c([N+](=O)[O-])c1[N+](=O)[O-]`, the inhibition is inactive: 24.9%.

Consider `C[C@H]1OP(=O)(Oc2ccccc2)[C@H](O)[C@H](O)[C@H]1N=[N+]=[N-]` (stereo partly specified), for which the inhibition is inactive: 5.76%.

Turning to `O=P(Nc1nc2ccccc2s1)(c1ccccc1)c1ccccc1`, the inhibition is inactive: 1.1%.

For the compound `O=[As](O)(c1ccccc1)c1ccc(O)cc1`, the inhibition was inactive: 13.9%.

In the case of `O=[N+]([O-])c1ncn(CCn2cnc([N+](=O)[O-])n2)n1`, the inhibition was inactive: -0.44%.

Consider `CC(=O)NC(SC(=S)N(C)C)C(Cl)(Cl)Cl` (stereo unspecified), for which the inhibition was inactive: -1.1%.

For the compound `Nc1ccc([As](=O)(O)c2ccc([N+](=O)[O-])cc2)cc1`, the inhibition was inactive: 6%.

With `C(Cc1nn[nH]n1)Cc1nn[nH]n1`, the inhibition is inactive: 1.42%.

For the compound `C/C(N)=N\P(=O)(OCc1ccccc1)OCc1ccccc1`, the inhibition was inactive: 0.567%.

Regarding `Cc1ccc(NP(=O)(Oc2cccc(C)c2)Oc2cccc(C)c2)nc1`, the inhibition is inactive: -0.683%.

In the case of `c1ccc(-c2nn[nH]n2)c(-c2nn[nH]n2)c1`, the inhibition is inactive: -2.91%.

As to `CCNC(=S)/N=C(\N)N[N+](=O)[O-]`, the inhibition was inactive: -0.814%.

With `O=C(NC1CCS(=O)(=O)C1)NP(=S)(Oc1ccccc1)Oc1ccccc1` (stereo unspecified), the inhibition is inactive: -2.88%.

Consider `O=P1(N(CCCl)CCCl)OCCC2CCCCN21` (stereo unspecified), for which the inhibition was inactive: -127%.

Turning to `O=C(OC1CN2CCC1CC2)c1ccccc1` (stereo unspecified), the inhibition is inactive: -3.29%.

On to `Cc1ccc(OP(=O)(Nc2ccccn2)Oc2ccc(C)cc2)cc1`, for which the inhibition is inactive: -0.879%.

`CN(C)C(=O)Oc1noc2ccccc12`: the inhibition is inactive: 3.15%.

Consider `O=c1c2cc([N+](=O)[O-])ccc2[nH]c2c([N+](=O)[O-])cc([N+](=O)[O-])cc12`, for which the inhibition is inactive: 18.6%.

In the case of `Cc1ccccc1OP(=O)(Nc1ccccn1)Oc1ccccc1C`, the inhibition was inactive: 1.17%.

Take `CC(NC(=O)COC(=O)C(O)(c1ccccc1)c1ccccc1)c1ccccc1` (stereo unspecified): the inhibition is inactive: -0.437%.

Regarding `CCOc1ccc(C2=NCC(CBr)S2)cc1` (stereo unspecified), the inhibition is inactive: -3.09%.

`CC(C)(C)C(=O)NC(Sc1ccccc1)C(Cl)(Cl)Cl` (stereo unspecified): the inhibition is inactive: 1.01%.

Consider `CCc1cc(O)c([N+](=O)[O-])c(C)c1[N+](=O)[O-]`, for which the inhibition was inactive: 1.56%.

`C[C@@H]1C=CCP(=O)(Oc2ccccc2)O1` (stereo partly specified): the inhibition was inactive: 1.71%.

In the case of `C[C@H]1OP(=O)(Oc2ccccc2)C[C@@H]2O[C@@H]21` (stereo partly specified), the inhibition was inactive: -6.47%.

For the compound `Cc1ccccc1CN(C)C(=O)COC(=O)C(O)(c1ccccc1)c1ccccc1`, the inhibition is inactive: -0.086%.

Regarding `COC(=O)C1(C)COP(=O)(NCc2ccccc2)OC1` (stereo unspecified), the inhibition was inactive: 1.15%.

Turning to `N#C/C(=C\c1ccc(N(CCBr)CCBr)cc1)C(N)=O`, the inhibition was inactive: -1.12%.

Regarding `CC(=O)c1ccc(N2CC2c2ccncc2)cc1` (stereo unspecified), the inhibition is inactive: 2.73%.

`CC(=O)Nc1ccc(Oc2c([N+](=O)[O-])cc([N+](=O)[O-])cc2[N+](=O)[O-])cc1`: the inhibition was inactive: 6.05%.

As to `CC(=O)Nc1ccc([As](=O)(O)O)c(O)c1`, the inhibition is inactive: 0.933%.
